# Numbers after ± are expanded uncertainties.
# Columns and labels:
# [1] = refractive index (Na D-line) (dimensionless); xn = mol fraction of the nth substance listed; settings: 298.15 K, 101.3 kPa, Liquid, Standard Abbe refractometry
# [2] = xn = mol fraction of the nth substance listed; settings: 298.15 K, 101.3 kPa, Liquid; for speed of sound: Frequency=3 MHz, Single path-length method; for mass density: Vibrating tube method
# [3] = Boiling temperature at pressure P; settings: 101.3 kPa; Liquid; Ebulliometric method (Recirculating still)
# [4] = 298.15 K, 101.33 kPa, Liquid
# [5] = refractive index (Na D-line) (dimensionless); settings: 298.15 K; 101.33 kPa; Liquid; Standard Abbe refractometry
smiles,measurement,setting,value
CCCCOCCCC [dibutyl ether] + CC(C)CC(C)(C)C,refractive index,[1]; x2 = 0,1.39652 ± 0.00033
same,refractive index,[1]; x2 = 0.0503,1.39618 ± 0.00033
same,refractive index,[1]; x2 = 0.1016,1.39584 ± 0.00033
same,refractive index,[1]; x2 = 0.1493,1.39551 ± 0.00033
same,refractive index,[1]; x2 = 0.1972,1.39519 ± 0.00033
same,refractive index,[1]; x2 = 0.2496,1.39483 ± 0.00033
same,refractive index,[1]; x2 = 0.3005,1.39448 ± 0.00033
same,refractive index,[1]; x2 = 0.3509,1.39411 ± 0.00033
same,refractive index,[1]; x2 = 0.4013,1.39374 ± 0.00033
same,refractive index,[1]; x2 = 0.451,1.39338 ± 0.00033
same,refractive index,[1]; x2 = 0.4994,1.39304 ± 0.00033
same,refractive index,[1]; x2 = 0.5474,1.39267 ± 0.00033
same,refractive index,[1]; x2 = 0.5978,1.39227 ± 0.00033
same,refractive index,[1]; x2 = 0.6491,1.39186 ± 0.00033
same,refractive index,[1]; x2 = 0.7016,1.39146 ± 0.00033
same,refractive index,[1]; x2 = 0.7505,1.39105 ± 0.00033
same,refractive index,[1]; x2 = 0.8028,1.39064 ± 0.00033
same,refractive index,[1]; x2 = 0.8516,1.39023 ± 0.00033
same,refractive index,[1]; x2 = 0.8989,1.38985 ± 0.00033
same,refractive index,[1]; x2 = 0.9497,1.3894 ± 0.00033
same,speed of sound,[2]; x2 = 0,1162 ± 1.1 m/s
same,speed of sound,[2]; x2 = 0.0503,1158.3 ± 1.1 m/s
same,speed of sound,[2]; x2 = 0.1016,1154.5 ± 1.1 m/s
same,speed of sound,[2]; x2 = 0.1493,1151 ± 1.1 m/s
same,speed of sound,[2]; x2 = 0.1972,1147.4 ± 1.1 m/s
same,speed of sound,[2]; x2 = 0.2496,1142.3 ± 1.1 m/s
same,speed of sound,[2]; x2 = 0.3005,1139.1 ± 1.1 m/s
same,speed of sound,[2]; x2 = 0.3509,1135.2 ± 1.1 m/s
same,speed of sound,[2]; x2 = 0.4013,1130.7 ± 1.1 m/s
same,speed of sound,[2]; x2 = 0.451,1127.1 ± 1.1 m/s
same,speed of sound,[2]; x2 = 0.4994,1123.7 ± 1.1 m/s
same,speed of sound,[2]; x2 = 0.5474,1120.3 ± 1.1 m/s
same,speed of sound,[2]; x2 = 0.5978,1116.2 ± 1.1 m/s
same,speed of sound,[2]; x2 = 0.6491,1112.1 ± 1.1 m/s
same,speed of sound,[2]; x2 = 0.7016,1107.8 ± 1.1 m/s
same,speed of sound,[2]; x2 = 0.7505,1103.8 ± 1.1 m/s
same,speed of sound,[2]; x2 = 0.8028,1099.5 ± 1.1 m/s
same,speed of sound,[2]; x2 = 0.8516,1095.4 ± 1.1 m/s
same,speed of sound,[2]; x2 = 0.8989,1091.4 ± 1.1 m/s
same,speed of sound,[2]; x2 = 0.9497,1087.1 ± 1.1 m/s
same,mass density,[2]; x2 = 0,763.75 ± 0.91 kg/m3
same,mass density,[2]; x2 = 0.0503,760.07 ± 0.91 kg/m3
same,mass density,[2]; x2 = 0.1016,756.32 ± 0.91 kg/m3
same,mass density,[2]; x2 = 0.1493,752.81 ± 0.91 kg/m3
same,mass density,[2]; x2 = 0.1972,749.28 ± 0.91 kg/m3
same,mass density,[2]; x2 = 0.2496,745.31 ± 0.91 kg/m3
same,mass density,[2]; x2 = 0.3005,741.56 ± 0.91 kg/m3
same,mass density,[2]; x2 = 0.3509,737.8 ± 0.91 kg/m3
same,mass density,[2]; x2 = 0.4013,733.95 ± 0.91 kg/m3
same,mass density,[2]; x2 = 0.451,730.21 ± 0.91 kg/m3
same,mass density,[2]; x2 = 0.4994,726.58 ± 0.91 kg/m3
same,mass density,[2]; x2 = 0.5474,722.91 ± 0.91 kg/m3
same,mass density,[2]; x2 = 0.5978,719.07 ± 0.91 kg/m3
same,mass density,[2]; x2 = 0.6491,715.12 ± 0.91 kg/m3
same,mass density,[2]; x2 = 0.7016,711.08 ± 0.91 kg/m3
same,mass density,[2]; x2 = 0.7505,707.28 ± 0.91 kg/m3
same,mass density,[2]; x2 = 0.8028,703.2 ± 0.91 kg/m3
same,mass density,[2]; x2 = 0.8516,699.4 ± 0.91 kg/m3
same,mass density,[2]; x2 = 0.8989,695.7 ± 0.91 kg/m3
same,mass density,[2]; x2 = 0.9497,691.68 ± 0.91 kg/m3
CCCCOCCCC [dibutyl ether],Boiling temperature at pressure P,[3],141.40 ± 0.05 °C
same,speed of sound,[4]; Single path-length method,1162 ± 1.1 m/s
same,mass density,[4]; Vibrating tube method,763.799 ± 0.91 kg/m3
same,refractive index,[5],1.39652 ± 0.00033
